# Ab-14 light chain CDR variants: yeast mating affinities

Antigen: PDVDLGDISGINAS, a 14-residue peptide of the SARS-CoV-2 spike HR2 region.

The variants keep the heavy chain, the linker and the frameworks of Ab-14 (scFv order VH, a (GGGGS)3 linker, VL).
VH: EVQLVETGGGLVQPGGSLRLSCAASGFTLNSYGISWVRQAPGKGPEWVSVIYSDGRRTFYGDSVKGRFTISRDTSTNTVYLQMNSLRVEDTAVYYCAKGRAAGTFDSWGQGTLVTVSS
VL: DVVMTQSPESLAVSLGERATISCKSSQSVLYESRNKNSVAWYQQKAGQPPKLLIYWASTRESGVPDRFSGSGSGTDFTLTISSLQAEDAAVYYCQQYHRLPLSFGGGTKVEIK

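Designed CDR sequences, proposed from the first random library and measured here. Several design methods are mixed in this list. The scFvs were displayed on barcoded MATa yeast, the peptide on MATalpha yeast. Mating (16 h, 30 °C) was followed by selection of diploids and sequencing of their barcodes. Each replicate has its own calibration line, from reference interactions of the BCL2 family. Each pool was mated in six replicate cultures.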

Each variant's VL is given in full. Scale: log10 of Kd in nM, estimated from mating counts; low values are strong binders. Averages over replicates are reported, and they cover detected replicates only. "nd" marks a missing value. The strain was present, yet no cells mated with the target were sequenced in that replicate, which points to weak or no binding. Order: sorted from the lowest average up. Values of this round are not directly comparable with the first-round values of the same sequences. In the paper, a design with two or fewer of six values counts as a poor binder. The parent sequence was in this pool as ten entries: three were never detected, three once, and four in most replicates, with averages from 0.34 to 2.37. Empty control strains, which show no peptide, gave a signal in 4% of pairings with all light chain designs; the median was 2.64 and 95% of these signals were weaker than 1.59. No background was subtracted.

log10 Kd, replicates | mean, log10 nM | VL
-0.20 -0.22 -0.45 -0.48 -0.52 -0.36 | -0.37 | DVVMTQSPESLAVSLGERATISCKFPQEVWYQSRMKNSVAWYQQKAGQPPKLLIYDASTREQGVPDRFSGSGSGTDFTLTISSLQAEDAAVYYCQQYHRLPLSFGGGTKVEIK
-0.22 -0.12 -0.18 -0.31 -0.24 0.04 | -0.17 | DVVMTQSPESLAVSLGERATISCKLLQSTLYESRNKNSVAWYQQKAGQPPKLLIYNASTRLSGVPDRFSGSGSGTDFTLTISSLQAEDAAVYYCQQYHRLPLSFGGGTKVEIK
0.11 0.08 -0.33 -0.43 -0.36 -0.02 | -0.16 | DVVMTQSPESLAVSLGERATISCKGSQVYLYESRNKNSVAWYQQKAGQPPKLLIYGASTRESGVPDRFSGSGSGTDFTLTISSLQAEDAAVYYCQQYHRLPLSFGGGTKVEIK
-0.13 -0.11 -0.13 -0.23 -0.10 0.03 | -0.11 | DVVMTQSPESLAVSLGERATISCKVPQSVLYESRNKNSVAWYQQKAGQPPKLLIYNGSTRESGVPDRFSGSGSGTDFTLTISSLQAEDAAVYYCQQYHRLPLSFGGGTKVEIK
0.12 0.00 0.21 -0.06 0.06 0.23 | 0.09 | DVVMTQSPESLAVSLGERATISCKSSQSYDYESRNKKSVAWYQQKAGQPPKLLIYGASTRESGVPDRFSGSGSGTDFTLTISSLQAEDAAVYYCQQYHRLPLSFGGGTKVEIK
0.29 0.09 0.11 0.00 0.24 0.44 | 0.20 | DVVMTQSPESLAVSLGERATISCKAEVSQDYWSRNQNSVAWYQQKAGQPPKLLIYNASQRESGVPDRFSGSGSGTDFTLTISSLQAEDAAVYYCQQYHRLPLSFGGGTKVEIK
0.43 0.28 0.32 0.02 0.32 0.37 | 0.29 | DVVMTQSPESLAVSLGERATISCLWSQSELLESRNHNSVAWYQQKAGQPPKLLIYDASTRCDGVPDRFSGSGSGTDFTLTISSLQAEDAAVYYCQQYHRLPLSFGGGTKVEIK
0.97 0.53 0.75 0.42 0.29 0.76 | 0.62 | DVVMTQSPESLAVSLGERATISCNMRLNEGEIAQHGYNIAWYQQKAGQPPKLLIYGVDLRAAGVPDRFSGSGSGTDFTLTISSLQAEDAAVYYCQQYARLPLHFGGGTKVEIK
0.42 0.79 0.75 0.87 0.41 0.91 | 0.69 | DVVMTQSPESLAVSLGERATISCKSSQSLLYESGNKNSVAWYQQKAGQPPKLLIYWASTRESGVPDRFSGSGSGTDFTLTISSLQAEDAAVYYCQQYHRLPLSFGGGTKVEIK
1.06 1.42 0.52 0.42 0.18 1.04 | 0.77 | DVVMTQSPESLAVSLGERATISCKLEQLHLYESRNKNSVAWYQQKAGQPPKLLIYQASTREMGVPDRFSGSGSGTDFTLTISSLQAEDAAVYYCQQYHRLPLSFGGGTKVEIK
0.94 1.06 0.76 0.40 0.76 0.89 | 0.80 | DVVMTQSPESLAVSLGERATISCTITQSVLMTGLNRNSVAWYQQKAGQPPKLLIYQAEERLEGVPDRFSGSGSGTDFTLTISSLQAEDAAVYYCQQYHRLPLSFGGGTKVEIK
1.23 0.64 1.01 0.49 0.85 0.96 | 0.86 | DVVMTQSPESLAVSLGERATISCTISQMTSLFSQTINNVAWYQQKAGQPPKLLIYEVSTREPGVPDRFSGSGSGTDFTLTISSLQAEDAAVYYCQQYDRLPLAFGGGTKVEIK
0.86 0.55 0.81 0.64 1.23 1.20 | 0.88 | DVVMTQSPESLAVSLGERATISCKLAQSGLYESRNKNSVAWYQQKAGQPPKLLIYKASTRESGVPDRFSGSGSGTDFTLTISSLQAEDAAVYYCQSYHRLPLDFGGGTKVEIK
1.29 0.95 0.39 1.24 0.76 0.73 | 0.90 | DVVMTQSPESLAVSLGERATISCTISNSFNMENQFKNSVAWYQQKAGQPPKLLIYQASTRESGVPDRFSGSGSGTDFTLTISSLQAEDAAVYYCQCYDRLPLSFGGGTKVEIK
1.32 0.86 0.87 0.66 0.67 1.36 | 0.96 | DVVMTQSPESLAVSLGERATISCKLSQFYRMESRTKNSVAWYQQKAGQPPKLLIYDNSTRESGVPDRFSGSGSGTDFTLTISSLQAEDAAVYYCQDYDRLPLSFGGGTKVEIK
1.55 1.25 1.36 1.54 1.41 1.29 | 1.40 | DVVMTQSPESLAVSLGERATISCTISGLILMPSRNKNSVAWYQQKAGQPPKLLIYNTSTRYSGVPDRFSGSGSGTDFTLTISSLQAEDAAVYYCQQYHRLPLSFGGGTKVEIK
1.54 1.12 0.90 0.76 2.17 3.37 | 1.64 | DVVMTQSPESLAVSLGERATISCKISQMVRVGSTVSNSIAWYQQKAGQPPKLLIYEMVTRANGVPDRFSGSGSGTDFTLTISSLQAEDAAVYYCQQYHRLPLAFGGGTKVEIK
2.26 nd 2.52 nd nd nd | 2.39 | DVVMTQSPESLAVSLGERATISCKLYMTVGYEQRNKSRVAWYQQKAGQPPKLLIYDNNTRESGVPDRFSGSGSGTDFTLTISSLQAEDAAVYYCQQYDRLPLSFGGGTKVEIK

For reference, 3 entries of the list once more:

VL | log10 Kd, replicates | mean, log10 nM
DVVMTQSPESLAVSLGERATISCTISQMTSLFSQTINNVAWYQQKAGQPPKLLIYEVSTREPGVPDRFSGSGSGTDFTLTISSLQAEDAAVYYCQQYDRLPLAFGGGTKVEIK | 1.23 0.64 1.01 0.49 0.85 0.96 | 0.86
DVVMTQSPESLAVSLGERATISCKLEQLHLYESRNKNSVAWYQQKAGQPPKLLIYQASTREMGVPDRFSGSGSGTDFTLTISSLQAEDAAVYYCQQYHRLPLSFGGGTKVEIK | 1.06 1.42 0.52 0.42 0.18 1.04 | 0.77
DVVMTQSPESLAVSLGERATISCKLSQFYRMESRTKNSVAWYQQKAGQPPKLLIYDNSTRESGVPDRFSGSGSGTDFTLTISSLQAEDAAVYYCQDYDRLPLSFGGGTKVEIK | 1.32 0.86 0.87 0.66 0.67 1.36 | 0.96

Values reported by Li et al. 2023, doi:10.1038/s41467-023-39022-2 (FLAb copy).